Measured values reported in PMC5754923 (Journal of medicinal chemistry, 2017).

Legend:
K562 cells = experiment: Vγ9Vδ2 T cell mediated lysis of K562 cells; settings: 2 hour treatment/4 hour co-culture
Vγ9Vδ2 T cells = experiment: Expansion of Vγ9Vδ2 T cells from peripheral blood; type: cell-based, human; settings: for Fold difference from HMBPP: EC50 ratio

Compound	Fold difference from HMBPP, lysis (K562 cells) [x]	Fold difference from HMBPP (Vγ9Vδ2 T cells) [x]	Selectivity index (Vγ9Vδ2 T cells; IC50 / EC50 in expansion assay)
CC(C)=CCCP(=O)([O-])CP(=O)([O-])[O-].[Na+].[Na+].[Na+] [Compound 8, Sodium (((4-methylpent-3-en-1-yl)oxidophosphoryl)methyl)phosphonate]	<0.000016	<0.0000051	–
COP(=O)(CC/C=C(\C)CO)CP(=O)(OC)OC (centres unmarked) [Compound 9, Dimethyl (E)-(((5-hydroxy-4-methylpent-3-en-1-yl)(methoxy)phosphoryl)methyl)phosphonate]	<0.000016	<0.0000051	–
C/C(=C\CCP(=O)([O-])CP(=O)([O-])[O-])CO.[Na+].[Na+].[Na+] [Compound 10, Sodium (E)-(((5-hydroxy-4-methylpent-3-en-1-yl)oxidophosphoryl)methyl)phosphonate]	–	–	>3.8
